Data taken from patent US6747027B1, “Thiol sulfonamide metalloprotease inhibitors” (Pharmacia Corporation, priority 1996, dated 2004).
pIC50: −log10 of the molar value.

Amino acid sequences for entries named in this document (tags omitted). Residues count along the entry.
UniProt P03956, 100-469 limits assumed: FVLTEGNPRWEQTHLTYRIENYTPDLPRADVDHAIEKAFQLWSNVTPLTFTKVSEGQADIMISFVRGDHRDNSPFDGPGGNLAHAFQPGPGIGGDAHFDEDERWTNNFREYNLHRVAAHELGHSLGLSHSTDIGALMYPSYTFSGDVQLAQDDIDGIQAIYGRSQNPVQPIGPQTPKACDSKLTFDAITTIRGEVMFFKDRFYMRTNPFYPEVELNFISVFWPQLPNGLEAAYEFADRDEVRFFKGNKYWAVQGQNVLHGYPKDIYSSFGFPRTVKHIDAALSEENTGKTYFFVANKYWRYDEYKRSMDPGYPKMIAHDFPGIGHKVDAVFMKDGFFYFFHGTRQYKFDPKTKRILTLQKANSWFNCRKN

Columns and labels:
recombinant human MMP-13 = recombinant human MMP-13 (Homo sapiens, UniProt P45452); test: In vitro metalloprotease inhibition, fluorogenic peptide assay (MMP-13); conditions: read-out: MMP-13 IC50 (nanomolar); recombinant human MMP-13, APMA activated; fluorogenic MCA peptide substrate 4 uM; pH 7.5, room temperature
Experimental: (§1) Certain of the compounds prepared in the manner described in Examples 1 to 223 were tested for activity by an in vitro assay. Following the procedures of Knight et al., FEBS Lett. 296(3):263 (1992). Briefly, 4-aminophenylmercuric acetate (APMA) or trypsin activated MMPs were incubated with various concentrations of the inhibitor compound at room temperature for 5 minutes (0.02% 2-mercapto-ethanol added to buffer for thiol compounds with 5 minutes or overnight incubation). More specifically, recombinant human MMP-13 and MMP-1 enzymes were prepared in laboratories of the inventors' employer. MMP-13 was expressed in baculovirus as a proenzyme, and purified first over a heparin agarose column and then over a chelating zinc chloride column. The proenzyme was activated by APMA for use in the assay. MMP-1 expressed in transfected HT-1080 was provided by Dr. Howard Welgus of Washington University, St. Louis, Mo. The enzyme was also activated using APMA and was then purified over a hydroxamic acid column.
(§2) The enzyme substrate is a methoxycoumarin-containing polypeptide having the following sequence:
(§3) MCA-ProLeuGlyLeuDpaAlaArgNH^2, wherein MCA is methoxycoumarin and Dpa is 3-(2,4-dinitrophenyl)-L-2,3-diaminopropionyl alanine. This substrate is commercially available from Baychem as product M-1895.
(§4) The buffer used for assays contained 100 mM Tris-HCl, 100 mM NaCl, 10 mM CaCl2 and 0.05 percent polyethyleneglycol(23) lauryl ether at a pH value of 7.5. Assays were carried out at room temperature, and dimethyl sulfoxide (DMSO) at a final concentration of 1 percent was used to dissolve inhibitor compound.
(§5) The assayed inhibitor compound in DMSO/buffer solution was compared to an equal amount of DMSO/buffer with no inhibitor as control using microfluor™ white plates (Dynatech). The inhibitor or control solution was maintained in the plate for 10 minutes and the substrate was added to provide a final concentration of 4 uM.
(§6) In the absence of inhibitor activity, a fluorogenic peptide is cleaved at the gly-leu peptide bond, separating the highly fluorogenic peptide from a 2.4-dinitrophenyl quencher, resulting in an increase of fluorescence intensity (excitation at 328 nm/emmision at 415 nm). Inhibition was measured as a reduction in fluorescent intensity as a function of inhibitor concentration, using a Perkin Elmer L550 plate reader. The IC50 values were calculated from those values. The results are set forth in the Inhibition Table below, reported in terms of IC50 to three significant figures.

recombinant human MMP-1 = recombinant human MMP-1 (Homo sapiens, UniProt P03956); test: In vitro metalloprotease inhibition, fluorogenic peptide assay (MMP-1); conditions: read-out: MMP-1 IC50 (nanomolar); recombinant human MMP-1, APMA activated; fluorogenic MCA peptide substrate 4 uM; pH 7.5, room temperature
Experimental: as §1, §2, §3, §4, §5, §6

| SMILES | pIC50 (recombinant human MMP-13) | pIC50 (recombinant human MMP-1) |
| --- | --- | --- |
| CC(=O)SC[C@@H](C)N(CCN1CCOCC1)S(=O)(=O)c1ccc(Sc2ccccc2)cc1 | 9.22 | < 5.00 |
| CC(=O)SC[C@@H](C)N(CC(=O)OC(C)(C)C)S(=O)(=O)c1ccc(Sc2ccccc2)cc1 | < 5.00 |  |
| COc1ccc(S(=O)(=O)N(CCSC(C)=O)Cc2ccccc2)cc1 | < 5.00 | < 5.00 |

More lines, main results first:

| pIC50 (recombinant human MMP-13) | SMILES | pIC50 (recombinant human MMP-1) |
| --- | --- | --- |
| 7.40 | CCCCOc1ccc(S(=O)(=O)N(CC(=O)O)[C@@H](CS)C(=O)O)cc1 | < 5.00 |
| 9.52 | CCCCOc1ccc(S(=O)(=O)N(C)[C@@H](CS)C(=O)O)cc1 | 6.30 |
| < 5.00 | CC(=O)SC[C@@H](C)N(CC(=O)O)S(=O)(=O)c1ccc(Sc2ccccc2)cc1 |  |
